In the library only some 1.3% were active in any assay of this set; here they are far more common.
SR-BI DiI inh: inhibitors of SR-BI mediated HDL lipid uptake, primary screen, ldlA[mSR-BI] cells, fluorescence, single point; AID 488896, 2010; ldlA[mSR-BI] CHO cells, DiI-HDL uptake fluorescence, 3 h; inhibition, % at 12.5 µM; 320,000 compounds, 0.96% hits;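 active means mean replicate inhibition of at least 70% and a set share of replicates each scoring 70 or more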;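 further: 0% = median of neutral control wells and 100% = median of positive control wells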
GSIS activator: GLuc luminescence reporter in INS-1E cells, primary screen for activators of glucose-dependent secretion of insulin. INS-1E GLuc reporter insulin secretion, 2-3 h. activation, % at 16.6 µM. 370,000 compounds, 0.61% hits. AID 743287, 2014;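 active means lowest replicate activation of at least 40%, so every replicate reaches that level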;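 further: 0% = median of neutral control wells and 100% = median of IBMX positive control wells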
SR-BI DiI-HDL act: activators of SR-BI mediated DiI-HDL uptake, primary screen, ldlA[mSR-BI] CHO cells, DiI fluorescence. 3 h; 100 = double the neutral-control signal. activation, % at 12.5 µM. 320,000 compounds, 0.096% hits;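 active means mean replicate activation of at least 60% and every replicate at or above 60%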;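 further: 0% = median plate neutral-control signal and 100% = twice that signal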
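Test system: SR-BI-overexpressing, LDLR-lacking CHO cells; Medium: Ham's F12 with 0.5% BSA, HEPES 25 mM, pH 7.4; Schedule: 3 h, 37 °C; Technique: bottom-read fluorescence, 550/595 nm.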
Yeast UUG start: alters start codon recognition fidelity in yeast. S. cerevisiae UUG-firefly luciferase reporter, luminescence/redox ratio. 350,000 tested, 0.13% active. activity score, % at 18.7 µM. AID 602363;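 active means replicate mean at a twofold rise or more, about +100% in these data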;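 further: firefly luciferase made from a UUG start codon reports start codon fidelity; reporter light over untreated wells divided by growth signal over untreated wells; some hits fall short of that in this replicate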
The depositor's hits bear a star; / = no result given.

entry	SMILES	SR-BI DiI inh	GSIS activator
1	CN1C(=O)c2cc(NC(=O)NC3CCCC3)ccc2OC[C@@H]2O[C@@H](CC(=O)NC3CCC3)CC[C@H]21	/	3
2	Cc1cc(C)n(-c2ccc(NC(=O)C3CCCCN3Cc3cccc4c3OCO4)cc2)n1 (stereo unspecified)	89*	-40
3	Cn1cc(C(=O)N/N=C/C2=C(N3CCOCC3)C(=C\c3ccccc3)/CC2)ccc1=O	47	13
4	O=C1Nc2ccc(Br)cc2/C1=N\N=C\C1=C(N2CCOCC2)C(=C/c2ccccc2)/CC1	100*	-16
5	O=C1Nc2ccccc2/C1=N\N=C\C1=C(N2CCOCC2)C(=C\c2ccccc2)/CC1	128*	/
6	CC(=O)Nc1ccc2c(c1)CC(=O)N(C)C[C@@H](C)[C@H](CN(C)C(=O)NC(C)C)O2	/	6
7	CC(C)NC(=O)C1(C)CCN1Cc1cccc(C#N)c1 (stereo unspecified)	/	43*
8	C[C@@H]1CN([C@H](C)CO)S(=O)(=O)c2ccc(C#Cc3cccnc3)cc2O[C@@H]1CN(C)C	/	-2
9	Cc1noc(C)c1NC(=O)N(C)C[C@@H]1Oc2ccc(NC(=O)Cc3ccccc3)cc2CC(=O)N([C@@H](C)CO)C[C@@H]1C	/	29
10	Cc1ccc(C(=O)n2nc(-c3cccnc3)nc2N)cc1	-11	72*
11	Cc1c(C(c2ccc(O)cc2)c2c(C)n(C)n(-c3ccccc3)c2=O)c(=O)n(-c2ccccc2)n1C	-8	6
12	Cc1c(C(c2ccc(C(=O)O)cc2)c2c(C)n(C)n(-c3ccccc3)c2=O)c(=O)n(-c2ccccc2)n1C	76*	-2

entry	SR-BI DiI-HDL act	Yeast UUG start
1	/	5
2	-89	-7
3	-47	/
4	-100	-5
5	-128	-9
6	/	/
7	/	-19
8	/	0
9	/	19
10	11	-17
11	8	13
12	-76	-9

(cont.)
entry	SMILES	SR-BI DiI inh	GSIS activator
13	O=C(C[C@H]1C[C@H]2c3cc(NC(=O)c4cccnc4)ccc3O[C@H]2[C@H](CO)O1)NCc1ccncc1	/	1
14	COC(=O)c1sccc1NC(=O)COc1ccc(C)cc1	-3	-5
15	COC(=O)c1sccc1NC(=O)COc1ccc(Cl)cc1Cl	23	61*
16	C[C@@H]1CN([C@H](C)CO)C(=O)c2cccc(NC(=O)c3cnccn3)c2O[C@H]1CN(C)S(=O)(=O)c1ccccc1	/	-4
17	Cc1occc1C(=O)N/N=C/c1sc(N2CCOCC2)nc1-c1ccccc1	-8	22
18	Cc1occc1C(=O)N/N=C/C1=C(N2CCOCC2)C(=C/c2ccc(Cl)cc2Cl)/CC1	86*	/
19	NC(=S)NN=C(c1ccc(F)cc1)C1CC1	90*	30
20	NC(=S)NN=C(c1ccc(Br)cc1)C1CC1	79*	1
21	O=C(NNC(=O)c1ccc(NC(=O)C2CC2)cc1)c1ccc(F)cc1	-5	17
22	Cc1noc(C)c1S(=O)(=O)N(C)C[C@@H]1Oc2ccc(NC(=O)Nc3ccc4c(c3)OCO4)cc2CC(=O)N([C@@H](C)CO)C[C@H]1C	/	-25
23	Cc1cc(Nc2ccc(Br)cc2)nc(-c2ccccc2O)n1	75*	9
24	Cc1ccc(Nc2cc(C)nc(-c3ccccc3O)n2)cc1	50	-29

entry	SR-BI DiI-HDL act	Yeast UUG start
13	/	-13
14	3	/
15	-23	/
16	/	/
17	8	/
18	-86	-17
19	-90	-28
20	-79	-23
21	5	-16
22	/	/
23	-75	-2
24	-50	5

The results go on.
entry	SMILES	SR-BI DiI inh	GSIS activator
25	Cc1cc(N/N=C/c2ccc(O)c(C)c2O)nc(-c2ccccc2O)n1	104*	3
26	CNC(=O)C[C@@H]1CC[C@H]2[C@H](COc3ccc(NC(=O)Nc4cc(C)cc(C)c4)cc3C(=O)N2C)O1	/	10
27	COc1ccccc1NC(=O)N[C@@H]1CC[C@H](CCNS(=O)(=O)c2ccc(C)cc2)O[C@@H]1CO	/	1
28	CCOC(=O)C1(C)C=C(Nc2ccc(OC)cc2)C(=O)N1c1ccc(OC)cc1 (stereo unspecified)	-18	59*
29	CCOC(=O)C1(C)C=C(Nc2ccc(O)cc2)C(=O)N1c1ccc(O)cc1 (stereo unspecified)	/	-12
30	O=C(c1ccccc1)N1CC[C@@H]2[C@H]1c1cc(C#Cc3cccnc3)ccc1N[C@@H]2CO	/	3
31	CC1(C)CC(=O)C(C=NC2CC(C)(C)NC(C)(C)C2)=C(O)C1	-17	44*
32	COc1ccc(Nc2ccnc3ccccc23)cc1	-2	/
33	CC(C)Nc1ccc(Nc2ccnc3cc4ccccc4cc23)cc1	77*	-61
34	CCOC(=O)C1CCN(C(=O)/C=C/c2ccc(S(=O)(=O)N3CCOCC3)cc2)CC1	-63	-19
35	O=C(/C=C/c1ccc(S(=O)(=O)N2CCOCC2)cc1)N1CCCCC1	-13	4
36	CC(C)(C)C1CCC2(CC1)C(Nc1cccc(C(F)(F)F)c1)=NC(=S)N2CC#N (stereo unspecified)	-152	/

entry	SR-BI DiI-HDL act	Yeast UUG start
25	-104	6
26	/	0
27	/	/
28	18	14
29	/	-7
30	/	-16
31	17	-14
32	2	/
33	-77	/
34	63*	13
35	13	-13
36	152*	-13

4 structures already listed, sorted by molecular weight, smallest number first.
entry	SMILES	SR-BI DiI inh	GSIS activator
31	CC1(C)CC(=O)C(C=NC2CC(C)(C)NC(C)(C)C2)=C(O)C1	-17	44*
33	CC(C)Nc1ccc(Nc2ccnc3cc4ccccc4cc23)cc1	77*	-61
25	Cc1cc(N/N=C/c2ccc(O)c(C)c2O)nc(-c2ccccc2O)n1	104*	3
26	CNC(=O)C[C@@H]1CC[C@H]2[C@H](COc3ccc(NC(=O)Nc4cc(C)cc(C)c4)cc3C(=O)N2C)O1	/	10

entry	SR-BI DiI-HDL act	Yeast UUG start
31	17	-14
33	-77	/
25	-104	6
26	/	0

Next section.
entry	SMILES	SR-BI DiI inh	GSIS activator
37	Cc1[nH]n(-c2ccccc2)c(=O)c1N=Nc1cccc(Cl)c1	6	6
38	CC(=O)c1cccc(N=Nc2c(-c3ccccc3)[nH]n(-c3ccccc3)c2=O)c1	100*	16
39	CC(C)NC(=O)N(C)C[C@H]1Oc2ccc(NC(=O)CCCCCC(=O)Nc3ccccc3N)cc2C(=O)N([C@H](C)CO)C[C@H]1C	/	-5
40	CCNC(=O)C[C@H]1CC[C@@H]2[C@H](COc3ccc(NC(=O)C4CCCCC4)cc3C(=O)N2C)O1	/	-1
41	O=C(N/N=C/c1cc(Br)cc(Cl)c1O)c1ccc2c(c1)OCO2	132*	/
42	COc1cc(Cl)cc(/C=N\NC(=O)c2ccc3c(c2)OCO3)c1O	/	2
43	COc1ccc(/C=N/NC(=O)c2cc(-c3ccc4c(c3)OCO4)n[nH]2)cc1OC	31	49*
44	O=C(N/N=C/C=C/c1ccc2c(c1)OCO2)c1ccc([N+](=O)[O-])cc1	-3	74*
45	O=C(N/N=C/c1ccc2c(c1)OCO2)c1ccc(Cl)cc1Cl	/	58*
46	C[C@H]1CN([C@@H](C)CO)C(=O)c2cc(NC(=O)c3ccncc3)ccc2O[C@H]1CN(C)C(=O)NC1CCCCC1	/	3
47	CO[C@@H]1CN(C)C(=O)c2ccc(NC(=O)Nc3ccccc3)cc2OC[C@@H](C)NC[C@@H]1C	/	11
48	Cc1cc(Br)cc(/C=N/NC(=O)c2ccc3c(c2)OCO3)c1O	146*	7

entry	SR-BI DiI-HDL act	Yeast UUG start
37	-6	-18
38	-100	/
39	/	-1
40	/	8
41	-132	-30
42	/	6
43	-31	/
44	3	-21
45	/	-14
46	/	-11
47	/	/
48	-146	-4

Next part.
entry	SMILES	SR-BI DiI inh	GSIS activator
49	O=C(N/N=C/c1cc(Cl)cc([N+](=O)[O-])c1O)c1ccc2c(c1)OCO2	124*	-5
50	O=C(N/N=C/c1cc2c(cc1Cl)OCO2)c1cccc(Br)c1	81*	2
51	O=C(N/N=C/c1ccccc1O)c1ccc2c(c1)OCO2	81*	-3
52	CC(=O)N1C[C@@H]2C(c3ccccc3)[C@H](C1)N2C(=O)NC(C)C (stereo partly specified)	/	9
53	O=C(N/N=C/c1ccc2c(c1)OCO2)c1ccc(COc2cccc3cccnc23)cc1	76*	-1

entry	SR-BI DiI-HDL act	Yeast UUG start
49	-124	1
50	-81	-14
51	-81	-36
52	/	/
53	-76	/
